Experimental data reported in patent US20140142040A1.

Molecular target: human plasmin (human) (UniProt P00747)
Assay: cell-based or functional assay

Substance: aprotinin (from UniProt P00974 36-93)
- prolongation of euglobulin clot lysis time, 20 nM aprotinin: 9 h
- prolongation of euglobulin clot lysis time, 100 nM aprotinin: > 16 h
